pEC50, pIC50: −log10 of the molar value.
Key:
[1] = biological target: MCR-3 (Homo sapiens, UniProt P41968); assay: Melanocortin receptor binding assay, competition with 125I-HP 467, HEK 293 cells expressing hMCR-3; conditions: read-out: MC-3 IC50; binding to MCR-3, HEK 293 cells
Text: (§1) All cell culture media and reagents were obtained from GibcoBRL (Gaithersburg Md.), except for COSMIC CALF SERUM (HyClone; Logan Utah). HEK-293 cell lines were transfected with the human MC receptors hMCR-1, hMCR-3, and hMCR-4 (Gantz et al., Biochem. Biophys. Res. Comm. 200:1214-1220 (1994); Gantz et al., J. Biol. Chem. 268:8246-8250 (1993); Gantz et al. J. Biol. Chem. 268:15174-15179 (1993); Haskell-Leuvano et al., Biochem. Biophys. Res. Comm. 204:1137-1142 (1994); each of which is incorporated herein by reference). […]
(§2) GF/B filter plates were prepared by soaking for at least one hour in 5 mg/ml BSA and 10 mM CaCl2. […] Filter plates were counted using a Packard Topcount (Packard Instrument Co.) and data analyzed using GraphPad PRISM v2.0 (GraphPad Software Inc.; San Diego Calif.) and Microsoft EXCEL v5.0a (Microsoft Corp.; Redmond Wash.).
(§3) To assay isoquinoline compounds, binding assays were performed in duplicate in a 96 well format. […] Cells were harvested on GF/B filter plates as described above and counted. […]

Amino acid sequences for entries named in this document (tags omitted).
UniProt P41968, whole entry: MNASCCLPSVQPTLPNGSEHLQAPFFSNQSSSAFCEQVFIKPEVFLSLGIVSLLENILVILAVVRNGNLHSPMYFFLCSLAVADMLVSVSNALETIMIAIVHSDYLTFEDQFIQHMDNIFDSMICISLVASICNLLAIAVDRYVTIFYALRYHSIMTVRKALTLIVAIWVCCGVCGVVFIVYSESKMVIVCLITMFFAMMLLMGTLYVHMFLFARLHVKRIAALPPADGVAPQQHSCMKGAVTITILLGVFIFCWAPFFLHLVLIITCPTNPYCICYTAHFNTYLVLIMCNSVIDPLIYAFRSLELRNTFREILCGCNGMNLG
UniProt P33032, whole entry: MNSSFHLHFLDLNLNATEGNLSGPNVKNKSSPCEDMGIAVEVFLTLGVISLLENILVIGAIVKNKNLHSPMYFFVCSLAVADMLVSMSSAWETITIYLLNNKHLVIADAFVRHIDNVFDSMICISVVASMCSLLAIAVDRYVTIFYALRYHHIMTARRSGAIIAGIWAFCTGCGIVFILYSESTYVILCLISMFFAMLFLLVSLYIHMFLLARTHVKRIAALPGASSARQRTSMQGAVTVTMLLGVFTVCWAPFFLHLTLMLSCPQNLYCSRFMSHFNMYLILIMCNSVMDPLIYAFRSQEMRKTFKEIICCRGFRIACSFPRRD
UniProt Q01726, whole entry: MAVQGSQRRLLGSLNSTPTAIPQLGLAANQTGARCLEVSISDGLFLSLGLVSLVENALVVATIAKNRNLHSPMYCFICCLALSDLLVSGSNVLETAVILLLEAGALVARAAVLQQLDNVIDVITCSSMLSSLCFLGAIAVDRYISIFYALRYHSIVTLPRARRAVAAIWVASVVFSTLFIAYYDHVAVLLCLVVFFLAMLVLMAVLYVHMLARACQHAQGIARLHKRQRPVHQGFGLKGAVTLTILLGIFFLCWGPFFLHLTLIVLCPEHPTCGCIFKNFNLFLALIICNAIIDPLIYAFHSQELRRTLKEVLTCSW

[2] = biological target: MCR-5 (Homo sapiens, UniProt P33032); assay: Melanocortin receptor binding assay, competition with 125I-HP 467, HEK 293 cells expressing hMCR-5; conditions: read-out: MC-5 IC50; binding to MCR-5, HEK 293 cells
Text: as §1, §2, §3

[3] = biological target: MCR-1 (Homo sapiens, UniProt Q01726); assay: cAMP assay for melanocortin receptors, HEK 293 cells expressing MCR-1
Experimental: HEK 293 cells expressing MCR-1, MCR-3, MCR-4 and MCR-5 were used (see Example II). Cells were plated at 20,000 cells per well in a 96-well plate coated with collagen. The next day, cells were pretreated with 75 μl of 0.4 mM 3-isobutyl-1-methylxanthine (IBMX) in low serum medium containing DMEM, 25 mM HEPES, non-essential amino acids, vitamins, 100 units/ml penicillin, 100 μg/ml streptomycin and 0.1% COSMIC CALF SERUM. IBMX is an inhibitor of cAMP phosphodiesterase. The pretreatment was carried out for 10 min at 37° C.
Following pretreatment, 25 μl of diluted isoquinoline compound was added to the wells, and cells were incubated for 15 min at 37° C. Cells were lysed by adding 25 μl saponin lysis buffer and incubating 2 to 5 min. Plates were covered and stored at −20° C.
cAMP concentration was determined by ELISA. Briefly, 96 well ELISA plates were coated with goat anti-cAMP antibody in PBS for 12 to 72 hr at 4° C. 50 μl of sample was mixed with 50 μl of cAMP ELISA buffer containing 1% bovine serum albumin, 10% heat-inactivated donor horse serum, 1% normal mouse serum and 0.05% TWEEN-20 in PBS, and the diluted sample was added to the coated ELISA plate. Standards of known concentrations of cAMP were added to separate wells. 25 μl of 16 ng/ml cAMP-conjugated horse radish peroxidase (HRP) (cAMP-HRP) was added to each well, and the plates were […] at room temperature. Plates were washed and the binding of cAMP-HRP was detected with 3,3′,5,5′-tetramethylbenzidine (TMB) and hydrogen peroxide using standard immunoassay procedures.
Various isoquinoline compounds were tested for their ability to activate MC receptor by measuring cAMP as described in Example III.

pIC50 [1]: 6.05 | pIC50 [2]: 6.00 | MC-1 Max (pmole) cAMP produced ([3]; maximum amount of cAMP): 20 pmol | pEC50 ([3]; read-out: MC-1 EC50 (cAMP), 50% of maximal cAMP production): 5.66
SMILES: CN[C@H](CN)CCCCN1Cc2ccccc2C(CNCc2ccccc2O)C1c1ccc(Br)cc1 (stereo partly shown)
